The target in the experiment is JAK1 (Homo sapiens (Human), UniProt P23458). Description: JAK Caliper Enzyme Assay at 1 mM ATP (JAK1). Format: biochemical. The settings on record: Caliper assay at 1 mM ATP.

The chains behind the UniProt entries cited, without tags or fusion partners. Where a name states a change or a piece, a line headed by the entry shows the natural chain unless it says otherwise.
UniProt P23458: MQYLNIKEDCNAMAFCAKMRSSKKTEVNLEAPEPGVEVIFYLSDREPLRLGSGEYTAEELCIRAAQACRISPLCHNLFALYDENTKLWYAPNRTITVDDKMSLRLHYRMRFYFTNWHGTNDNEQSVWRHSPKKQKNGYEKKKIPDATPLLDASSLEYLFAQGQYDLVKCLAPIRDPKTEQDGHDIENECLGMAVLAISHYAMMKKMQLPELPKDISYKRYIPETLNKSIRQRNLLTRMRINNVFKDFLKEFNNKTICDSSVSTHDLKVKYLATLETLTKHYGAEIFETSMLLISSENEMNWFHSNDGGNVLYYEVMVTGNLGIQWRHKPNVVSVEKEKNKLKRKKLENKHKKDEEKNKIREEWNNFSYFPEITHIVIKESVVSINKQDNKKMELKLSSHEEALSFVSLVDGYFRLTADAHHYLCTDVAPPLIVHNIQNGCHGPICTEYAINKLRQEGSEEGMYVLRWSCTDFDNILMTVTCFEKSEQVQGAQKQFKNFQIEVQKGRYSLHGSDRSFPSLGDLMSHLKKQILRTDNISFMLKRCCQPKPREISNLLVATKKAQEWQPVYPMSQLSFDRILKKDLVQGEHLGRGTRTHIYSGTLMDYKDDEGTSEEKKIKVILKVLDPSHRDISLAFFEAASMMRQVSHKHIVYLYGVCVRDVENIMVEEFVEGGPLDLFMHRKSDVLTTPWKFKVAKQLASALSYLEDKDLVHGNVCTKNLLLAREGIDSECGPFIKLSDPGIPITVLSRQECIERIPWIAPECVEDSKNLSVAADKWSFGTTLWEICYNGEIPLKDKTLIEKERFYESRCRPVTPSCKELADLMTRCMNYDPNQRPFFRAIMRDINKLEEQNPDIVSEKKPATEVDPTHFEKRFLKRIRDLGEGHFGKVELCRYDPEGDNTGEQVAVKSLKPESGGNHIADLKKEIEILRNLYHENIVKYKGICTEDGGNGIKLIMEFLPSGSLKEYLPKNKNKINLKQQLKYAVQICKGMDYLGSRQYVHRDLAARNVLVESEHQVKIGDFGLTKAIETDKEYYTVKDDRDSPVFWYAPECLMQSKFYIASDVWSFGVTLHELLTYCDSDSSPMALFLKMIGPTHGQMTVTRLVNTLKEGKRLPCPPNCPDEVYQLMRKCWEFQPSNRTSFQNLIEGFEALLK

Results on one compound are retold here after patent US10022376B2 (Pfizer Inc., priority 2014, dated 2018).

Counter-ions that a name gives are not always drawn.

What is called IC50 is the concentration needed to halve the response being measured. A high value points to a need for much substance. `CCc1cc(O)ccc1-c1cc2[nH]ncc2c(N2CCc3c(cccc3C(=O)NCc3ccccc3)C2)n1` [Example 117, N-benzyl-2-[6-(2-ethyl-4-hydroxyphenyl)-1H-pyrazolo[4,3-c]pyridin-4-yl]-1,2,3,4-tetrahydroisoquinoline-5-carboxamide formate] registered a half-inhibitory concentration (IC50) of 7.2 nM.
